Measurements as given in patent publication US9822157B2 (priority 2013, dated 2017).

These substances were tested against T1, human ferroportin (Homo sapiens, UniProt Q9NP59). Details: Hepcidin analog peptides; read-out: Potency EC50.
T1 sequence (Q9NP59 1-571): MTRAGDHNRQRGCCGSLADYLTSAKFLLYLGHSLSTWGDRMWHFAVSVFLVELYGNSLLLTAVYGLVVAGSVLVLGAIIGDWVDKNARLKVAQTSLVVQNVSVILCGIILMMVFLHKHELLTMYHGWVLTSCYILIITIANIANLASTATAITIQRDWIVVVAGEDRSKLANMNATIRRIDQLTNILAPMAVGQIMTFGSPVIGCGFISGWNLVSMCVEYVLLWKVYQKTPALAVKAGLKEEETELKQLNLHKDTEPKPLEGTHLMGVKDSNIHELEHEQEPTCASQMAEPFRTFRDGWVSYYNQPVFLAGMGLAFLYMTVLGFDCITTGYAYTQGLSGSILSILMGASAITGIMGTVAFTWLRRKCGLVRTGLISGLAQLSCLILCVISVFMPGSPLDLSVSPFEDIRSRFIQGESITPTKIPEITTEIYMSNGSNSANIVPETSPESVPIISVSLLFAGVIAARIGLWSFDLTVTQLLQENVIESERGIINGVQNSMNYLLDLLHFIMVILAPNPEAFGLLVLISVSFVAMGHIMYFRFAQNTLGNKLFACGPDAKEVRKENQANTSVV
Format: cell-based
Description: The cDNA encoding the human ferroportin (SLC40A1) was cloned from a cDNA clone from Origene (NM_014585). The DNA encoding the ferroportin was amplified by PCR using primers also encoding terminal restriction sites for subcloning, but without the termination codon. The ferroportin receptor was subcloned into a mammalian GFP expression vector containing a neomycin (G418) resistance marker in such that the reading frame of the ferroportin was fused in frame with the GFP protein. The fidelity of the DNA encoding the protein was confirmed by DNA sequencing. HEK293 cells were used for transfection of the ferroportin-GFP receptor expression plasmid. The cells were grown according to standard protocol in growth medium and transfected with the plasmids using Lipofectamine (manufacturer's protocol, Invitrogen). […] The cells were propagated and frozen in aliquots.
Compound was added to desired final concentration for at least 18 hours in the incubator. […] Compound was added to desired final concentration for at least 18 hours but no more than 24 hours in the incubator.
A retro inverse peptide is a peptide with a reversed sequence in all D amino acids. […] The EC50 of these reference compounds for ferroportin degradation was determined according to the activity assay described above.

Row | Substance | EC50 [nM]
1 | Isovaleric acid-DTHFPCIKFGPKSKGWVCK-NH2 [Compound 112] | 15
2 | [Ida]-THF-[bh-Pro]-CIIF-NH2 [Compound 285] | > 1000
3 | Valeric acid-DTHFPCIKFGPRSKGWVCK-NH2 [Compound 163] | 64
4 | Heptanoic acid-DTHFPCIKFGPRSKGWVCK-NH2 [Compound 169] | 91
5 | Isovaleric acid-DTHFPCIKFGPRS-K(PEG8)-GWVCK-NH2 [Compound 152] | 16
6 | Isovaleric acid-DTHFPCIKFEPRSKKWVCK-NH2 [Compound 214] | 15
7 | pGlu-THFPIC1IFVC2HRSKGC2YRRC1R-NH2 [Compound 40] | 260
8 | Isovaleric acid-HFPCIKFEPRSKGWVC-K(octanoic acid)-NH2 [Compound 261] | > 300
9 | Isovaleric acid-DTHFPCIKF-K(isoglu-Palm)-PRSKGCK-NH2 [Compound 219] | 9
10 | Isovaleric acid-DTHFPCIKFEPRSK-K(isoglu-Palm)-CK-NH2 [Compound 222] | 4
11 | Isobutyric acid-DTHFPIC1IFVC2HRSKGC2YRRC1R-NH2 [Compound 13] | 63
12 | [Ida]-THFPCIIFGPRSRGWVCK-NH2 [Compound 110] | > 300
13 | Cyclohexanoic acid-DTHFPCIKFGPRSKGWVCK-NH2 [Compound 168] | 30
14 | Isovaleric acid-DTHFPCIKFGPRS-K(Betaine)-GWVCK-NH2 [Compound 157] | 18
15 | Isovaleric acid-DTHFPCIIFGPRSKGWACK-NH2 [Compound 141] | 11
16 | Isovaleric acid-DTHFPCIIFGPRSKGCK-NH2 [Compound 115] | 21
17 | Isovaleric acid-DTHFPCIIFGPRSKGWCK-NH2 [Compound 113] | 15
18 | Isovaleric acid-DTHFPCIKFGP-K(Palm)-SKGWVCK-NH2 [Compound 196] | 2
19 | Hy-DTHFPCIKF-K(IVA)-PRSKGWVCK-NH2 [Compound 205] | > 300
20 | Isovaleric acid-DTHFPCIKFGPCK-NH2 [Compound 190] | 55
21 | Isovaleric acid-DTHFPCSIFGPRSKGWVCK-NH2 [Compound 95] | 78
22 | Isovaleric acid-DTHFPCIKFGPRSKGWECK-NH2 [Compound 121] | 14
23 | Isovaleric acid-DTHFPCIIFGPKSKGWVCK-NH2 [Compound 111] | 12

Row | Substance | EC50 [nM]
24 | Isovaleric acid-DTHFPCIKF-NH2 [Compound 291] | 7
25 | Isovaleric acid-DTHFPCIIFGPRSRGWVC-K(PEG2)-NH2 [Compound 180] | 9
26 | Isovaleric acid-DTHFPICIFGPRS-K(PEG4)-GWVC-NH2 [Compound 177] | 6
27 | Isovaleric acid-DTHFPCI-K(dapa-Palm)-FEPRSKGCK-NH2 [Compound 225] | 17
28 | Isovaleric acid-DTHFPC-[Dapa]-IFGPRSKGWDCK-NH2 [Compound 117] | 65
29 | Isovaleric acid-DTAFPCIIFGPRSKGWVCK-NH2 [Compound 146] | 24
30 | Isovaleric acid-DTHFPCI-K(Betaine)-FGPRSKGWVCK-NH2 [Compound 158] | 16
31 | Isovaleric acid-DTHFPCIIFGPRSRGWVC-K(PEG8)-NH2 [Compound 178] | 3
32 | Isovaleric acid-DTHFPCIKF-K(Palm)-PRSKGWVCK-NH2 [Compound 195] | 9
33 | Isovaleric acid-DTHFPCIFFGPRSKGWVCK-NH2 [Compound 6] | 23
34 | Isovaleric acid-DTHFPCIKFEP-K(dapa-Palm)-SKGCK-NH2 [Compound 227] | 10
35 | Isovaleric acid-DTHFPCIKFEPRSK-K(dapa-Palm)-CK-NH2 [Compound 229] | 13
36 | Isovaleric acid-DTHFPCIKFEPRSKGWTCK-NH2 [Compound 182] | 13
37 | Isovaleric acid-DTHFPCIKFEPRS-K(dapa-Palm)-GCK-NH2 [Compound 228] | 7
38 | Isovaleric acid-DTAFPCIKFEPRSKEC-NH2 [Compound 267] | > 1000
39 | Isovaleric acid-DTHFPCIIFEPRSKGWVCK-NH2 [Compound 142] | 9
40 | Isovaleric acid-DTHFPCIKF-K(octanoic acid)-PRSKGWVC-NH2 [Compound 250] | 30
41 | Isovaleric acid-DTHFPCIKKEPHSKECK-NH2 [Compound 357] | > 1000
42 | Isovaleric acid-DTHFPCIKF-K(lauric acid)-PRSKGWVC-NH2 [Compound 248] | 10
43 | Isovaleric acid-DTHFPCIKF-K(isoglu-Palm)-PHSKECK-NH2 [Compound 358] | 6
44 | Isovaleric acid-DTHFPCIKF-K(mysteric acid)-PRSKGWVC-NH2 [Compound 247] | 7
45 | Isovaleric acid-DTHF-[Sarc]-CIIFGPRSKGWVCK-NH2 [Compound 126] | 31
46 | Isovaleric acid-ATHFPCIKFGPRSKGWVCK-NH2 [Compound 234] | 60

Row | Substance | EC50 [nM]
47 | Isovaleric acid-DTHFPCIIFGPRSRGWVC-K(PEG4)-NH2 [Compound 179] | 4
48 | Isovaleric acid-DTHFPCIIFGPRSKGWTCK-NH2 [Compound 7] | 24
49 | Isovaleric acid-DTHFPCIKFCK-NH2 [Compound 192] | 48
50 | Isovaleric acid-DTHFPCIKFEPRSKGCK-K(isoglu-Palm)-NH2 [Compound 224] | 4
51 | Isovaleric acid-DTHFPCIKFGPRSCK-NH2 [Compound 188] | 30
52 | Isovaleric acid-DTHFPCIKFGPRCK-NH2 [Compound 189] | 36
53 | Isovaleric acid-DTHFPCIIFGPRSKGVC-NH2 [Compound 114] | 18
54 | Isovaleric acid-DTHFPCIIFGPRSKGWVCKKKK-NH2 [Compound 143] | 24
55 | Isovaleric acid-DTHFPCIKFGP-K(PEG8)-SKGWVCK-NH2 [Compound 151] | 13
56 | Isobutyric acid-DTHFPCIKFGPRSKGWVCK-NH2 [Compound 162] | 41
57 | Isovaleric acid-DTHFPCIKF-K(decanoic acid)-PRSKGWVC-NH2 [Compound 249] | 22
58 | Isovaleric acid-DTHFPCIKF-K(hexanoic acid)-PRSKGWVC-NH2 [Compound 251] | 21
59 | 4,4-5,5-6,6,6-Heptafluorohexanoic acid-DTHFPCIKFGPRSKGWVCK-NH2 [Compound 246] | 480
60 | Isovaleric acid-DTHFPCIKFEPRSKGC-K(isoglu-Palm)-NH2 [Compound 223] | 5
61 | Isovaleric acid-DTHFPCIKFEPRS-K(isoglu-Palm)-GCK-NH2 [Compound 221] | 4
62 | Isobutyric acid-DTHFPIC1IFVC2HRSKGC2YRRC1R-NH2 [Compound 17] | 93
63 | Ida-THFPCIKFEPRSKGWVC-K(mysteric acid)-NH2 [Compound 254] | 20
64 | Octanoic acid-DTHFPCIIFGPRSRGWVCK-NH2 [Compound 88] | > 1000
65 | Isovaleric acid-DTHFPCIKFEPRSKGWCK-NH2 [Compound 183] | 17
66 | Isovaleric acid-DTHAPCIKFGPRSKGWVCK-NH2 [Compound 236] | > 500
67 | Isovaleric acid-DTHFPCIIFGPRSKGWVC-NH2 [Compound 4] | 19
68 | Isovaleric acid-DTHFPCIFEPRSKGWCK-NH2 [Compound 186] | 12
69 | Isovaleric acid-DTHFPCIKF-K(dapa-Palm)-PRSKGCK-NH2 [Compound 226] | 14

Same assay, conditions: in vitro activity (EC50) tested as in Example 2; read-out: In Vivo Activity EC50

Row | Substance | EC50 [nM]
70 | Isovaleric acid-DTHFPCIIFGPRSKGCK-NH2 [Compound 115] | 21

Same assay, conditions: read-out: EC50 (nM) (n = 3); in vitro activity as in Example 2; peptide monomers and dimers dimerized through a single disulphide linkage; n = 3

Row | Substance | EC50 [nM]
71 | Isovaleric acid-DTHFPCIKF-NH2 [Compound 291] | 7

Same assay, conditions: read-out: EC50 (nM) (n > 3); peptide dimers, dimer position explored (DIG linker)

Row | Substance | EC50 [nM]
72 | (Isovaleric acid-DTKFPCIRF-NH2)2 [Compound 329] | 9
73 | (Isovaleric acid-DTHFPCIKFK-NH2)2 DIG through K10 [Compound 346] | 15

Same assay, conditions: read-out: Log dilutions EC50 (nM) (n > 3) (converted); monomers and dimers through a glycol linker on εN of lysine

Row | Substance | EC50 [nM]
74 | (Isovaleric acid-DTHFPCIIFGPRSRGWVCK-NH2)2-[DIG] [Compound 352] | 5

Same assay, conditions: read-out: Log dilutions EC50 (nM) (n > 3) (converted); peptide dimers, various linkers at different positions

Row | Substance | EC50 [nM]
75 | (Isovaleric acid-DTHFPCIKF-NH2)2-[IDA-(β-Ala)-Palm] [Compound 349] | 5
76 | (Isovaleric acid-DTHFPCIKFK-NH2)2 DIG through K10 [Compound 346] | 15
